Laboratory results as given in ChEMBL document CHEMBL1145005 (J Med Chem, 2003).

Target: Aldo-keto reductase family 1 member B1 (Homo sapiens, UniProt P15121)
Experiment: Inhibition of human recombinant Aldose reductase […]

IC50: 4 nM
Structure (SMILES): O=C(O)Cc1nn(Cc2nc3cc(C(F)(F)F)ccc3s2)c(=O)c2ccccc12 [ZOPOLRESTAT]
